Test results taken from US20050048073A1, “Methods of determining west nile virus epitopes and method of using the same” (priority 2001, published 2005).

The chains behind the UniProt entries cited, without tags or fusion partners. Residues count along the entry.
UniProt P01889, 25-362: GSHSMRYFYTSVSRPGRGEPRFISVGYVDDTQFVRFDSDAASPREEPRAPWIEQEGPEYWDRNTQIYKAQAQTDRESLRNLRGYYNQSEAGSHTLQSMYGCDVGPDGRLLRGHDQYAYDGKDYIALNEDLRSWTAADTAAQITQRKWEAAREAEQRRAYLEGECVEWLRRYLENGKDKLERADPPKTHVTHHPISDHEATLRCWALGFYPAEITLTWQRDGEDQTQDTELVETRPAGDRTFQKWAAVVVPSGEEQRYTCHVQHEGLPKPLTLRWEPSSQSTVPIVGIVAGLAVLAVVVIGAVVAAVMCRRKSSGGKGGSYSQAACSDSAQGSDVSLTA

Biological target: HLA B*07 (Homo sapiens, UniProt P01889)
Test: T2B7 binding assay (stabilization of HLA B*07 on TAP-deficient T2 cells, FACS)
Experimental: Triplicate wells of peptide at 10, 20, 200 ug/ml were evaluated in each of the T2 B7 binding assays; each assay was repeated 4 times. […] The “binding score” column provides the numerical sum of all the positive assays in the binding summary column.
The T2B7 binding assay method is well described in the literature and operational in the laboratory. This assay relies on the ability of exogenously added peptides to stabilize the class I MHC/beta 2 microglobulin structure on the surface of transporters associated with antigen processing (TAP)-deficient cell lines. Briefly, HLA B*07 T2 cell lines were prepared by incubating overnight (16 hours) at 26° C. Just prior to the binding assay these cells were washed twice in serum-free media. Solutions of the test peptides at three concentrations (final concentration of 10, 20, and 200 ug/ml in RPMI 1640 (Sigma, St. Louis, Mo.)) were plated in triplicate wells of a 96 well, round-bottom assay plate (Beckton Dickinson, Lincoln Park, N.J.). Sixteen wells containing cells without peptide were included in each plate, serving as the no-peptide control (background control) for the assay.
100,000 cells were added to each well, and the plates were then incubated for four hours at 37° C., 5% CO2 The plates were then spun at 110×g for 10 minutes at 4° C., supernatant is discarded and the remaining cells are re-suspended. One hundred uL of diluted primary antibody-containing hybridoma supernatant (1:10 dilution of ME1 supernatant produced by HB-119 cell line from ATCC) in staining buffer (PBS, 5% FBS, 0.1% sodium azide) was added to all of the wells except 8 wells per assay plate (each containing 200 ug/ml of one study peptide, these wells served as controls for non-specific binding of secondary antibody). Primary antibody was incubated with the peptide-pulsed cells for 30 minutes at 4° C. After washing three times, the cells were re-suspended, and 100 uL of a 1:250 dilution of FITC-labeled secondary antibody (FITC labeled Goat F(ab′)2 Anti-mouse IgG (H+L) from Caltag) in staining buffer were added to all wells. The plates were incubated for 30 minutes at 4° C., and subsequently washed three times. The contents of each well were then resuspended in 200 uL of fixing buffer (PBS, 1% paraformaldehyde), and aliquoted into FACS tubes.
The 16 negative control wells in each plate contained no peptide but did contain cells, primary antibody and secondary antibody. […]
Following fixing, the presence of fluorescent secondary antibody on the surface of T2 cells (gated to the appropriate cell size) was measured at 488 nm on a FACScan flow cytometer (Becton-Dickinson, New Jersey). The mean linear fluorescence […] of 10,000 events was measured and compared to the background fluorescence of cells plated in (no peptide) control wells. […]

Sequence: AAKKKGASLL [WNB7 006]
- Avg. Fold Inc. @ 200 (fold increase over background, peptide at 200 ug/ml): 1.2
- Avg. MFI 200 (mean fluorescence index, peptide at 200 ug/ml): 708.1
- Binding number (binding score) (numerical sum of all the positive assays): 4
- Binding strength (rated strong, moderate, weak or none by number of significantly positive wells): weak (weak binders (binding score of 4))
